System: MDM2:β-catenin ternary complex
Details: SPR ABA, immobilized MDM2^25–109, β-catenin up to […], 10 μM Helicon

CC[C@H](C)[C@H](NC(=O)[C@H](C)NC(=O)[C@H](CCC(N)=O)NC(=O)[C@H](CCC(N)=O)NC(=O)[C@H](CCC(=O)O)NC(=O)[C@H](CCSC)NC(=O)[C@@H]1CCCN1C(C)=O)C(=O)N[C@H]1CSCC(=O)Nc2ccc(cc2)NC(=O)CSC[C@@H](C(=O)N[C@@H](CC(C)C)C(=O)N[C@@H](C)C(=O)N[C@@H](CC(=O)O)C(=O)N[C@@H](CC(=O)O)C(=O)N[C@@H](Cc2c[nH]c3ccccc23)C(=O)N[C@H](C(N)=O)[C@@H](C)O)NC(=O)[C@H](CCSC)NC(=O)[C@H](Cc2c[nH]c3ccccc23)NC(=O)[C@H](C)NC(=O)[C@H](C)NC(=O)[C@H](CCC(N)=O)NC(=O)[C@H](Cc2ccccc2)NC1=O [Helicon H329]
fold weaker affinity in SPR than in in-solution FP assays: 5- to 10 fold

CC[C@H](C)[C@H](NC(=O)[C@H](Cc1ccccc1)NC(=O)[C@H](Cc1ccc(O)cc1)NC(=O)[C@H](CC(C)C)NC(=O)[C@@H]1CSCC(=O)Nc2ccc(cc2)NC(=O)CSC[C@H](NC(=O)[C@H](CC(=O)O)NC(=O)[C@H](CCCNC(=N)N)NC(=O)[C@H](C)NC(=O)[C@H](CC(N)=O)NC(=O)[C@H](CCC(=O)O)NC(=O)[C@H](CO)NC(=O)[C@@H]2CCCN2C(C)=O)C(=O)N[C@@H](Cc2ccccc2)C(=O)N[C@@H](Cc2c[nH]c3ccccc23)C(=O)N[C@@H](C)C(=O)N[C@@H](C)C(=O)N[C@@H](Cc2c[nH]c3ccccc23)C(=O)N[C@@H](CC(=O)O)C(=O)N1)C(=O)N[C@@H](Cc1ccc(O)cc1)C(=O)N[C@@H](CCC(N)=O)C(N)=O [Helicon H333]
fold weaker affinity in SPR than in in-solution FP assays: 5- to 10 fold

— article PMC10620186, “Recognition and reprogramming of E3 ubiquitin ligase surfaces by α-helical peptides” (Nature Communications, 2023)
